Results published in the Human Domainome abundance scans (Beltran et al. 2025).

B1: X-ray repair cross-complementing protein 6, residues 558 to 609; numbered along this chain, P12956 (parent)
chain: EYSEEELKTHISKGTLGKFTVPMLKEACRAYGLKSGLKKQELLEALTKHFQD

Variants of: B1
Experiment: abundance fitness (aPCA) (normalised: wild type 0, dead -1); higher = more abundant; growth selection in yeast, the domain comes from the species named
Details: Homo sapiens

Q: Which abundance fitness does the source give for AYSEEELKTHISKGTLGKFTVPMLKEACRAYGLKSGLKKQELLEALTKHFQD here?
A: -0.268 ± 0.071

Q: With CYSEEELKTHISKGTLGKFTVPMLKEACRAYGLKSGLKKQELLEALTKHFQD as the variant, how does the abundance fitness read?
A: -0.546 ± 0.18

Q: Which abundance fitness does the source give for DYSEEELKTHISKGTLGKFTVPMLKEACRAYGLKSGLKKQELLEALTKHFQD here?
A: 0.095 ± 0.077

Q: For GYSEEELKTHISKGTLGKFTVPMLKEACRAYGLKSGLKKQELLEALTKHFQD, which abundance fitness is on record?
A: -0.051 ± 0.042

Q: With HYSEEELKTHISKGTLGKFTVPMLKEACRAYGLKSGLKKQELLEALTKHFQD as the variant, how does the abundance fitness read?
A: -0.321 ± 0.093

Q: Which abundance fitness does the source give for KYSEEELKTHISKGTLGKFTVPMLKEACRAYGLKSGLKKQELLEALTKHFQD here?
A: 0.118 ± 0.14

Q: With LYSEEELKTHISKGTLGKFTVPMLKEACRAYGLKSGLKKQELLEALTKHFQD as the variant, how does the abundance fitness read?
A: 0.16 ± 0.17

Q: With MYSEEELKTHISKGTLGKFTVPMLKEACRAYGLKSGLKKQELLEALTKHFQD as the variant, how does the abundance fitness read?
A: -0.386 ± 0.12

Q: For RYSEEELKTHISKGTLGKFTVPMLKEACRAYGLKSGLKKQELLEALTKHFQD, which abundance fitness is on record?
A: -0.412 ± 0.088

Q: Which abundance fitness does the source give for SYSEEELKTHISKGTLGKFTVPMLKEACRAYGLKSGLKKQELLEALTKHFQD here?
A: -0.436 ± 0.12

Q: For TYSEEELKTHISKGTLGKFTVPMLKEACRAYGLKSGLKKQELLEALTKHFQD, which abundance fitness is on record?
A: -0.694 ± 0.21

Q: With VYSEEELKTHISKGTLGKFTVPMLKEACRAYGLKSGLKKQELLEALTKHFQD as the variant, how does the abundance fitness read?
A: -0.207 ± 0.063

Q: Which abundance fitness does the source give for YYSEEELKTHISKGTLGKFTVPMLKEACRAYGLKSGLKKQELLEALTKHFQD here?
A: 0.039 ± 0.22

Q: With EASEEELKTHISKGTLGKFTVPMLKEACRAYGLKSGLKKQELLEALTKHFQD as the variant, how does the abundance fitness read?
A: -0.509 ± 0.056

Q: For ECSEEELKTHISKGTLGKFTVPMLKEACRAYGLKSGLKKQELLEALTKHFQD, which abundance fitness is on record?
A: -0.38 ± 0.05

Q: With EDSEEELKTHISKGTLGKFTVPMLKEACRAYGLKSGLKKQELLEALTKHFQD as the variant, how does the abundance fitness read?
A: -0.468 ± 0.066

Q: For EESEEELKTHISKGTLGKFTVPMLKEACRAYGLKSGLKKQELLEALTKHFQD, which abundance fitness is on record?
A: -0.427 ± 0.041

Q: For EFSEEELKTHISKGTLGKFTVPMLKEACRAYGLKSGLKKQELLEALTKHFQD, which abundance fitness is on record?
A: 0.041 ± 0.064

Q: With EGSEEELKTHISKGTLGKFTVPMLKEACRAYGLKSGLKKQELLEALTKHFQD as the variant, how does the abundance fitness read?
A: -0.529 ± 0.044

Q: Which abundance fitness does the source give for EHSEEELKTHISKGTLGKFTVPMLKEACRAYGLKSGLKKQELLEALTKHFQD here?
A: -0.345 ± 0.034

Q: Which abundance fitness does the source give for EISEEELKTHISKGTLGKFTVPMLKEACRAYGLKSGLKKQELLEALTKHFQD here?
A: 0.169 ± 0.072

Q: Which abundance fitness does the source give for EKSEEELKTHISKGTLGKFTVPMLKEACRAYGLKSGLKKQELLEALTKHFQD here?
A: -0.249 ± 0.049

Q: Which abundance fitness does the source give for ELSEEELKTHISKGTLGKFTVPMLKEACRAYGLKSGLKKQELLEALTKHFQD here?
A: -0.102 ± 0.04

Q: With EMSEEELKTHISKGTLGKFTVPMLKEACRAYGLKSGLKKQELLEALTKHFQD as the variant, how does the abundance fitness read?
A: -0.123 ± 0.043

Q: Which abundance fitness does the source give for ENSEEELKTHISKGTLGKFTVPMLKEACRAYGLKSGLKKQELLEALTKHFQD here?
A: -0.403 ± 0.086

Q: With EPSEEELKTHISKGTLGKFTVPMLKEACRAYGLKSGLKKQELLEALTKHFQD as the variant, how does the abundance fitness read?
A: -0.349 ± 0.05

Q: Which abundance fitness does the source give for EQSEEELKTHISKGTLGKFTVPMLKEACRAYGLKSGLKKQELLEALTKHFQD here?
A: -0.526 ± 0.039

Q: Which abundance fitness does the source give for ERSEEELKTHISKGTLGKFTVPMLKEACRAYGLKSGLKKQELLEALTKHFQD here?
A: -0.584 ± 0.045

Q: Which abundance fitness does the source give for ESSEEELKTHISKGTLGKFTVPMLKEACRAYGLKSGLKKQELLEALTKHFQD here?
A: -0.388 ± 0.036

Q: Which abundance fitness does the source give for ETSEEELKTHISKGTLGKFTVPMLKEACRAYGLKSGLKKQELLEALTKHFQD here?
A: -0.256 ± 0.037

Q: With EVSEEELKTHISKGTLGKFTVPMLKEACRAYGLKSGLKKQELLEALTKHFQD as the variant, how does the abundance fitness read?
A: -0.25 ± 0.046

Q: With EYAEEELKTHISKGTLGKFTVPMLKEACRAYGLKSGLKKQELLEALTKHFQD as the variant, how does the abundance fitness read?
A: -0.569 ± 0.035

Q: With EYCEEELKTHISKGTLGKFTVPMLKEACRAYGLKSGLKKQELLEALTKHFQD as the variant, how does the abundance fitness read?
A: -0.146 ± 0.062

Q: Which abundance fitness does the source give for EYDEEELKTHISKGTLGKFTVPMLKEACRAYGLKSGLKKQELLEALTKHFQD here?
A: -0.079 ± 0.07

Q: For EYEEEELKTHISKGTLGKFTVPMLKEACRAYGLKSGLKKQELLEALTKHFQD, which abundance fitness is on record?
A: -0.537 ± 0.06

Q: Which abundance fitness does the source give for EYFEEELKTHISKGTLGKFTVPMLKEACRAYGLKSGLKKQELLEALTKHFQD here?
A: 0.14 ± 0.079

Q: For EYGEEELKTHISKGTLGKFTVPMLKEACRAYGLKSGLKKQELLEALTKHFQD, which abundance fitness is on record?
A: -0.433 ± 0.045

Q: Which abundance fitness does the source give for EYIEEELKTHISKGTLGKFTVPMLKEACRAYGLKSGLKKQELLEALTKHFQD here?
A: -0.294 ± 0.079

Q: For EYKEEELKTHISKGTLGKFTVPMLKEACRAYGLKSGLKKQELLEALTKHFQD, which abundance fitness is on record?
A: -0.185 ± 0.056

Q: Which abundance fitness does the source give for EYLEEELKTHISKGTLGKFTVPMLKEACRAYGLKSGLKKQELLEALTKHFQD here?
A: -0.118 ± 0.045

Q: For EYMEEELKTHISKGTLGKFTVPMLKEACRAYGLKSGLKKQELLEALTKHFQD, which abundance fitness is on record?
A: -0.107 ± 0.039

Q: For EYNEEELKTHISKGTLGKFTVPMLKEACRAYGLKSGLKKQELLEALTKHFQD, which abundance fitness is on record?
A: -0.094 ± 0.059

Q: With EYPEEELKTHISKGTLGKFTVPMLKEACRAYGLKSGLKKQELLEALTKHFQD as the variant, how does the abundance fitness read?
A: -0.276 ± 0.042

Q: With EYQEEELKTHISKGTLGKFTVPMLKEACRAYGLKSGLKKQELLEALTKHFQD as the variant, how does the abundance fitness read?
A: -0.299 ± 0.036

Q: For EYREEELKTHISKGTLGKFTVPMLKEACRAYGLKSGLKKQELLEALTKHFQD, which abundance fitness is on record?
A: -0.288 ± 0.04

Q: With EYTEEELKTHISKGTLGKFTVPMLKEACRAYGLKSGLKKQELLEALTKHFQD as the variant, how does the abundance fitness read?
A: -0.129 ± 0.05

Q: For EYVEEELKTHISKGTLGKFTVPMLKEACRAYGLKSGLKKQELLEALTKHFQD, which abundance fitness is on record?
A: -0.6 ± 0.04

Q: With EYWEEELKTHISKGTLGKFTVPMLKEACRAYGLKSGLKKQELLEALTKHFQD as the variant, how does the abundance fitness read?
A: -0.274 ± 0.047

Q: Which abundance fitness does the source give for EYYEEELKTHISKGTLGKFTVPMLKEACRAYGLKSGLKKQELLEALTKHFQD here?
A: -0.192 ± 0.069

Q: With EYSAEELKTHISKGTLGKFTVPMLKEACRAYGLKSGLKKQELLEALTKHFQD as the variant, how does the abundance fitness read?
A: -0.22 ± 0.053

± gives the uncertainty stated by the source.
